# Experimental data reported in ChEMBL document CHEMBL5038666, “Discovery of DNA-Targeting HDAC Inhibitors with Potent Antitumor Efficacy In Vivo That Trigger Antitumor Immunity” (J Med Chem, 2022).
# Key:
# Calf thymus DNA [1] = experiment: Binding affinity to calf thymus DNA assessed as dissociation constant at 500 microM by isothermal titration calorimetric analysis; type: nucleic-acid assay, Bos taurus
# Calf thymus DNA [2] = settings: Bos taurus; dose 500.0 µM
# Calf thymus DNA [3] = settings: Bos taurus; dose 500.0 µM; remark: listed apart in the source
deltaG (Calf thymus DNA [2]),deltaH (Calf thymus DNA [3]),SMILES,Kd (Calf thymus DNA [1])
-6.15 kcal/mol,-51.4 kcal/mol,O=C(CCCCCCOc1ccc(-c2nc3ccc(-c4nc5ccccc5[nH]4)cc3[nH]2)cc1)NO,31.4 µM
-5.95 kcal/mol,-80 kcal/mol,O=C(CCCCCCOc1cccc(-c2nc3ccccc3[nH]2)c1)NO,43.9 µM
